Drawing on patent publication US12318403B2, “2′3′-cyclic dinucleotides and prodrugs thereof” (INSTITUTE OF ORGANIC CHEMISTRY AND BIOCHEMISTRY ASCR, V.V.I., priority 2019, dated 2025), this text covers EC50 for 32 molecules.

Sequences of proteins named here, by UniProt entry; tags and fusion partners are left off.
UniProt Q86WV6, whole entry H232R: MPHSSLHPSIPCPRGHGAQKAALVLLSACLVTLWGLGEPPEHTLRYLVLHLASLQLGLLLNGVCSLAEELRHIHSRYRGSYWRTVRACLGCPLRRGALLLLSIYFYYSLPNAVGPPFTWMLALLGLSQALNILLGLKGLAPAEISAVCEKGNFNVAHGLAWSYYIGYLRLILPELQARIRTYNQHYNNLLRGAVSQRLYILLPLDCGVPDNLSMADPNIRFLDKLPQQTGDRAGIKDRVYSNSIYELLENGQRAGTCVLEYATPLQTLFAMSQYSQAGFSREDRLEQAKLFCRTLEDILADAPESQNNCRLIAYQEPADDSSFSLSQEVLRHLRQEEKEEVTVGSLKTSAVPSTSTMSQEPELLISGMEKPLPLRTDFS

Structures are written as SMILES.

This assay concerns the target human wild type STING (WT STING) (Homo sapiens, UniProt Q86WV6, H232R). In words: 293T WT STING standard reporter assay. It counts as cell-based. Conditions: 293T WT STING EC50, 293T wtSTING-FL cells; standard reporter assay without digitonin; 7 hours; ISRE firefly luciferase. Background: A reporter such as luciferase makes a cellular process visible.
Regarding `CCCCCC(=O)Oc1ccc(CSP2(=O)OC[C@H]3O[C@@H](n4cnc5c(N)ncnc54)[C@H](F)[C@@H]3OCP(=O)(O)OC[C@H]3O[C@@H](n4cnc5c(=O)[nH]c(N)nc54)[C@H](O2)[C@@H]3F)cc1` (single isomer, unassigned) [Compound 31a], the response was half-maximal at 270 nM (EC50).

With `CCCCCC(=O)Oc1ccc(CSP2(=O)OC[C@H]3O[C@@H](n4cnc5c(N)ncnc54)[C@H](F)[C@@H]3OCP(=O)(O)OC[C@H]3O[C@@H](n4cnc5c(=O)[nH]c(N)nc54)[C@H](O2)[C@@H]3F)cc1` (single isomer, unassigned) [Compound 31b], the concentration for a half-maximal effect (EC50) came out at 40 nM. For `CC(C)(C)C(=O)OCSP1(=O)OC[C@H]2O[C@@H](n3cnc4c(N)ncnc43)[C@H](F)[C@@H]2OCP(=O)(O)OC[C@H]2O[C@@H](n3cnc4c(=O)[nH]c(N)nc43)[C@H](O1)[C@@H]2F` (single isomer, unassigned) [Compound 32a], the EC50 stood at 3800 nM. Regarding `CC(C)(C)C(=O)OCSP1(=O)OC[C@H]2O[C@@H](n3cnc4c(N)ncnc43)[C@H](F)[C@@H]2OCP(=O)(O)OC[C@H]2O[C@@H](n3cnc4c(=O)[nH]c(N)nc43)[C@H](O1)[C@@H]2F` (single isomer, unassigned) [Compound 32b], the EC50 came to 600 nM.

The molecule `CC(C)OC(=O)OCSP1(=O)OC[C@H]2O[C@@H](n3cnc4c(N)ncnc43)[C@H](F)[C@@H]2OCP(=O)(O)OC[C@H]2O[C@@H](n3cnc4c(=O)[nH]c(N)nc43)[C@H](O1)[C@@H]2F` (single isomer, unassigned) [Compound 33a] showed an EC50 of 14700 nM.

The molecule `CC(C)OC(=O)OCSP1(=O)OC[C@H]2O[C@@H](n3cnc4c(N)ncnc43)[C@H](F)[C@@H]2OCP(=O)(O)OC[C@H]2O[C@@H](n3cnc4c(=O)[nH]c(N)nc43)[C@H](O1)[C@@H]2F` (single isomer, unassigned) [Compound 33b] had an EC50 of 1400 nM. Against the preceding molecule, the EC50 is about 10-fold lower. As for `CCCCCCCC(=O)Oc1ccc(CSP2(=O)OC[C@H]3O[C@@H](n4cnc5c(N)ncnc54)[C@H](F)[C@@H]3OCP(=O)(O)OC[C@H]3O[C@@H](n4cnc5c(=O)[nH]c(N)nc54)[C@H](O2)[C@@H]3F)cc1` (single isomer, unassigned) [Compound 34a], the figure is 170 nM.

In turn, `CCCCCCCC(=O)Oc1ccc(CSP2(=O)OC[C@H]3O[C@@H](n4cnc5c(N)ncnc54)[C@H](F)[C@@H]3OCP(=O)(O)OC[C@H]3O[C@@H](n4cnc5c(=O)[nH]c(N)nc54)[C@H](O2)[C@@H]3F)cc1` (single isomer, unassigned) [Compound 34b] registered an EC50 of 350 nM.

For the molecule `CCCCCCCCCC(=O)Oc1ccc(CSP2(=O)OC[C@H]3O[C@@H](n4cnc5c(N)ncnc54)[C@H](F)[C@@H]3OCP(=O)(O)OC[C@H]3O[C@@H](n4cnc5c(=O)[nH]c(N)nc54)[C@H](O2)[C@@H]3F)cc1` (single isomer, unassigned) [Compound 35a], the EC50 amounted to 30 nM. Under `CCCCCCCCCC(=O)Oc1ccc(CSP2(=O)OC[C@H]3O[C@@H](n4cnc5c(N)ncnc54)[C@H](F)[C@@H]3OCP(=O)(O)OC[C@H]3O[C@@H](n4cnc5c(=O)[nH]c(N)nc54)[C@H](O2)[C@@H]3F)cc1` (single isomer, unassigned) [Compound 35b] stands 80 nM; under `CCCC(=O)Oc1ccc(CSP2(=O)OC[C@H]3O[C@@H](n4cnc5c(N)ncnc54)[C@H](F)[C@@H]3OCP(=O)(O)OC[C@H]3O[C@@H](n4cnc5c(=O)[nH]c(N)nc54)[C@H](O2)[C@@H]3F)cc1` (single isomer, unassigned) [Compound 36a], 450 nM; under `CCCC(=O)Oc1ccc(CSP2(=O)OC[C@H]3O[C@@H](n4cnc5c(N)ncnc54)[C@H](F)[C@@H]3OCP(=O)(O)OC[C@H]3O[C@@H](n4cnc5c(=O)[nH]c(N)nc54)[C@H](O2)[C@@H]3F)cc1` (single isomer, unassigned) [Compound 36b], 160 nM. As for `CC(C)(C)C(=O)Oc1ccc(CSP2(=O)OC[C@H]3O[C@@H](n4cnc5c(N)ncnc54)[C@H](F)[C@@H]3OCP(=O)(O)OC[C@H]3O[C@@H](n4cnc5c(=O)[nH]c(N)nc54)[C@H](O2)[C@@H]3F)cc1` (single isomer, unassigned) [Compound 37a], the figure is 600 nM; as for `CC(C)(C)C(=O)Oc1ccc(CSP2(=O)OC[C@H]3O[C@@H](n4cnc5c(N)ncnc54)[C@H](F)[C@@H]3OCP(=O)(O)OC[C@H]3O[C@@H](n4cnc5c(=O)[nH]c(N)nc54)[C@H](O2)[C@@H]3F)cc1` (single isomer, unassigned) [Compound 37b], 90 nM. Consider `CCCCCCCCCCCC(=O)Oc1ccc(CSP2(=O)OC[C@H]3O[C@@H](n4cnc5c(N)ncnc54)[C@H](F)[C@@H]3OCP(=O)(O)OC[C@H]3O[C@@H](n4cnc5c(=O)[nH]c(N)nc54)[C@H](O2)[C@@H]3F)cc1` (single isomer, unassigned) [Compound 38a], for which a half-maximal effect (EC50) was put at 10 nM. As for `CCCCCCCCCCCC(=O)Oc1ccc(CSP2(=O)OC[C@H]3O[C@@H](n4cnc5c(N)ncnc54)[C@H](F)[C@@H]3OCP(=O)(O)OC[C@H]3O[C@@H](n4cnc5c(=O)[nH]c(N)nc54)[C@H](O2)[C@@H]3F)cc1` (single isomer, unassigned) [Compound 38b], the figure is 40 nM; as for `CC(C)(C)C(=O)OCOc1ccc(CSP2(=O)OC[C@H]3O[C@@H](n4cnc5c(N)ncnc54)[C@H](F)[C@@H]3OCP(=O)(O)OC[C@H]3O[C@@H](n4cnc5c(=O)[nH]c(N)nc54)[C@H](O2)[C@@H]3F)cc1` (single isomer, unassigned) [Compound 39a], 170 nM.

In turn, `CC(C)(C)C(=O)OCOc1ccc(CSP2(=O)OC[C@H]3O[C@@H](n4cnc5c(N)ncnc54)[C@H](F)[C@@H]3OCP(=O)(O)OC[C@H]3O[C@@H](n4cnc5c(=O)[nH]c(N)nc54)[C@H](O2)[C@@H]3F)cc1` (single isomer, unassigned) [Compound 39b] registered an EC50 of 40 nM. Against the preceding molecule, the EC50 is about 4.2-fold lower. `CCCCCC(=O)Oc1ccc(C(=O)Oc2ccc(CSP3(=O)OC[C@H]4O[C@@H](n5cnc6c(N)ncnc65)[C@H](F)[C@@H]4OCP(=O)(O)OC[C@H]4O[C@@H](n5cnc6c(=O)[nH]c(N)nc65)[C@H](O3)[C@@H]4F)cc2)cc1` (single isomer, unassigned) [Compound 40a] gave an EC50 of 10000 nM.

`CCCCCC(=O)Oc1ccc(C(=O)Oc2ccc(CSP3(=O)OC[C@H]4O[C@@H](n5cnc6c(N)ncnc65)[C@H](F)[C@@H]4OCP(=O)(O)OC[C@H]4O[C@@H](n5cnc6c(=O)[nH]c(N)nc65)[C@H](O3)[C@@H]4F)cc2)cc1` (single isomer, unassigned) [Compound 40b] yielded an EC50 of 10 nM.

The molecule `CC(C)(C)C(=O)OCSP1(=O)OC[C@H]2O[C@@H](n3cnc4c(N)ncnc43)[C@H](F)[C@@H]2OCP(=O)(O)OC[C@H]2O[C@@H](n3cnc4c(=O)[nH]cnc43)[C@H](O1)[C@@H]2F` (single isomer, unassigned) [Compound 50a] displayed an EC50 of 1900 nM. Compared with the last molecule, the EC50 is about 190-fold higher. For the molecule `CC(C)(C)C(=O)OCSP1(=O)OC[C@H]2O[C@@H](n3cnc4c(N)ncnc43)[C@H](F)[C@@H]2OCP(=O)(O)OC[C@H]2O[C@@H](n3cnc4c(=O)[nH]cnc43)[C@H](O1)[C@@H]2F` (single isomer, unassigned) [Compound 50b], the midpoint of the response, the EC50, lay at 900 nM. This EC50 is about 2.1-fold lower than that of the molecule before. As for `CC(C)(C)C(=O)OCOc1ccc(CSP2(=O)OC[C@H]3O[C@@H](n4cnc5c(N)ncnc54)[C@H](F)[C@@H]3OCP(=O)(O)OC[C@H]3O[C@@H](n4cnc5c(=O)[nH]cnc54)[C@H](O2)[C@@H]3F)cc1` (single isomer, unassigned) [Compound 51a], the figure is 1600 nM; as for `CC(C)(C)C(=O)OCOc1ccc(CSP2(=O)OC[C@H]3O[C@@H](n4cnc5c(N)ncnc54)[C@H](F)[C@@H]3OCP(=O)(O)OC[C@H]3O[C@@H](n4cnc5c(=O)[nH]cnc54)[C@H](O2)[C@@H]3F)cc1` (single isomer, unassigned) [Compound 51b], 100 nM; as for `CCCCCCCCCCCC(=O)OCSP1(=O)OC[C@H]2O[C@@H](n3cnc4c(N)ncnc43)[C@H](F)[C@@H]2OCP(=O)(O)OC[C@H]2O[C@@H](n3cnc4c(=O)[nH]cnc43)[C@H](O1)[C@@H]2F` (single isomer, unassigned) [Compound 56a], 60 nM. For the molecule `CCCCCCCCCCCC(=O)OCSP1(=O)OC[C@H]2O[C@@H](n3cnc4c(N)ncnc43)[C@H](F)[C@@H]2OCP(=O)(O)OC[C@H]2O[C@@H](n3cnc4c(=O)[nH]cnc43)[C@H](O1)[C@@H]2F` (single isomer, unassigned) [Compound 56b], the response was half-maximal at 30 nM (EC50).

Consider `CCCCCCCCCCCC(=O)OCSP1(=O)OC[C@H]2O[C@@H](n3cnc4c(N)ncnc43)[C@H](F)[C@@H]2OCP(=O)(O)OC[C@H]2O[C@@H](n3cnc4c(=O)[nH]c(N)nc43)[C@H](O1)[C@@H]2F` (single isomer, unassigned) [Compound 57a], for which a half-maximal effect (EC50) was put at 30 nM. `CCCCCCCCCCCCCCCC(=O)OCSP1(=O)OC[C@H]2O[C@@H](n3cnc4c(N)ncnc43)[C@H](F)[C@@H]2OCP(=O)(O)OC[C@H]2O[C@@H](n3cnc4c(=O)[nH]cnc43)[C@H](O1)[C@@H]2F` (single isomer, unassigned) [Compound 64a]: a half-maximal response (EC50) required 7 nM. Consider `CCCCCCCCCCCCCCCC(=O)OCSP1(=O)OC[C@H]2O[C@@H](n3cnc4c(N)ncnc43)[C@H](F)[C@@H]2OCP(=O)(O)OC[C@H]2O[C@@H](n3cnc4c(=O)[nH]cnc43)[C@H](O1)[C@@H]2F` (single isomer, unassigned) [Compound 64b], for which the EC50 stood at 10 nM. As for `CCCCCCCCCCCCCC(=O)OCSP1(=O)OC[C@H]2O[C@@H](n3cnc4c(N)ncnc43)[C@H](F)[C@@H]2OCP(=O)(O)OC[C@H]2O[C@@H](n3cnc4c(=O)[nH]cnc43)[C@H](O1)[C@@H]2F` (single isomer, unassigned) [Compound 68a], the figure is 10 nM; as for `CCCCCCCCCCCCCC(=O)OCSP1(=O)OC[C@H]2O[C@@H](n3cnc4c(N)ncnc43)[C@H](F)[C@@H]2OCP(=O)(O)OC[C@H]2O[C@@H](n3cnc4c(=O)[nH]cnc43)[C@H](O1)[C@@H]2F` (single isomer, unassigned) [Compound 68b], 50 nM. As for `CCCCCCCCCC(=O)OCSP1(=O)OC[C@H]2O[C@@H](n3cnc4c(N)ncnc43)[C@H](F)[C@@H]2OCP(=O)(O)OC[C@H]2O[C@@H](n3cnc4c(=O)[nH]cnc43)[C@H](O1)[C@@H]2F` (single isomer, unassigned) [Compound 75a], the figure is 200 nM.

As a reminder, the EC50 is the concentration giving half of the maximal effect. Higher therefore signals lower potency in that assay.
